Results from patent publication US20060115476A1 (ADIENNE, published 2006).

Target: T1, scFv TS-A12/22
T1 construct: Obtained from TS-A12 by VL chain shuffling; also called TS-A12/22 antibody
Assay: competitive ELISA, peptide pre-incubated with scFv, then binding to C5 on solid phase
Description: In order to verify this hypothesis, a peptide of 18 amino acids was synthesised, with sequence: KDMQLGR^{↓}[…] (P5A-18 also termed C5cs comprising SEQ IDN15). This peptide corresponds to region 727-744 of the mature protein and comprises the cleavage site of C5 convertase (indicated by the arrow) between glycine 733 and arginine 734 according to SwissProt numbering for human C5 (SEQ ID P01031). The peptide was used in a competitive ELISA assay on the C5 protein on solid phase. Before binding to the solid phase, the TS-A12/22 antibody was pre-incubated with the P5A-18 peptide, corresponding to amino acids 727-744 of the C5 component, or with an unrelated peptide of sequence […] (SEQ ID No. 16 of sequence listing) corresponding to a fibronectin derived peptide termed CS5.

Ki: 1000 nM
B1: P5A-18 peptide (KDMQLGRLHMKTLLPVSK) (peptide)
peptide: KDMQLGRLHMKTLLPVSK
notes: Said to correspond to region 727-744 of the mature human C5 protein; also called C5cs
